Reference: ChEMBL document CHEMBL1128584, “Prediction of drug binding affinities by comparative binding energy analysis” (J Med Chem, 1995)

Target: T1, Phospholipase A2, membrane associated (Homo sapiens) (UniProt P14555)
T1 sequence (whole entry): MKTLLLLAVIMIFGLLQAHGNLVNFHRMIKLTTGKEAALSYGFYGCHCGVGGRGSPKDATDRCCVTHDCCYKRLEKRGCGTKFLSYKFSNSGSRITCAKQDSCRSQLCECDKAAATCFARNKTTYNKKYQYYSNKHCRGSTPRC
Test: Inhibitory activity against human synovial fluid phospholipase A2 (HSF-PLA2)
Set-up: concentration or dose not given beside the values
Settings: concentration not given here

## CCCCCCCCCCS(=O)(=O)NC(CCCCCC)COP(=O)(O)CC (stereo unspecified)
  inhibition: 33%
